Assay results from article PMC1892040 (PLoS Medicine, 2007).
Like-named read-outs stand apart in the source and are kept apart here.

Chains of the proteins cited; added tags and fusions are not shown. Residues count along the entry.
UniProt P00390, 44-522 limits assumed: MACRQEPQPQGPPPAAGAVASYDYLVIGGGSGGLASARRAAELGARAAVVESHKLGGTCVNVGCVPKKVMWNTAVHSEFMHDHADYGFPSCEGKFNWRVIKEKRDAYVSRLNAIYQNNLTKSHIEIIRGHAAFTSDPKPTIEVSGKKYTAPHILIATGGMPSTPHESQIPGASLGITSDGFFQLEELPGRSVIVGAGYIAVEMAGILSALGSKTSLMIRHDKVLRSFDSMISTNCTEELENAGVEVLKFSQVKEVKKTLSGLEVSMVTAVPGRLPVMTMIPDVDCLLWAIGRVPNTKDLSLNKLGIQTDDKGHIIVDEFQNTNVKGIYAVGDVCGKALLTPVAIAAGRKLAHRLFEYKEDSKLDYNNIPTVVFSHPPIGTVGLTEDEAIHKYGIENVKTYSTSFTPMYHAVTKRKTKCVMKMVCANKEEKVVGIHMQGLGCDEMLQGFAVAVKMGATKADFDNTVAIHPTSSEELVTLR
UniProt Q16881, 151-649: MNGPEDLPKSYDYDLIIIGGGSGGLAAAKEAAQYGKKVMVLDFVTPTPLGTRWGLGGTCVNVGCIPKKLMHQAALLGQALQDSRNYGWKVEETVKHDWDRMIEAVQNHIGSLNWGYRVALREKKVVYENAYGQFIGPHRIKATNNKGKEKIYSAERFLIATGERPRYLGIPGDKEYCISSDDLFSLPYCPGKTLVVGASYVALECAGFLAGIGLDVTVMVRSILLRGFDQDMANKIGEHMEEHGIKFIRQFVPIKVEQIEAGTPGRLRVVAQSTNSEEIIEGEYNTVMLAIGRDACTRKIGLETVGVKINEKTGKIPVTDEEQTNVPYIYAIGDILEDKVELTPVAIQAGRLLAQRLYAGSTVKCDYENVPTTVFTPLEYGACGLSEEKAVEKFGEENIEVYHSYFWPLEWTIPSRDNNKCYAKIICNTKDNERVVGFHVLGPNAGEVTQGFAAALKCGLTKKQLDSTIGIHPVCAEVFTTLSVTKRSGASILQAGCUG

What was measured:
Human GR [1] = target: T1, Human GR (Homo sapiens, UniProt P00390); assay: Inhibition of human GR (GSSG); assay type: biochemical; conditions: read-out: IC50 Human GR, GSSG; 50 μM GSSG under steady state conditions
Procedure: (§1) In order to assess the potential for inhibition of TGR we screened several structurally diverse series of compounds (Figure S1) known to act as inhibitors of disulfide reductases from various organisms. Screening was performed with a TGR assay using DTNB, including a 15 min preincubation of recombinant enzyme, inhibitor, and NADPH before addition of substrate (Table 3).

Human TrxR [2] = target: T2, Human TrxR (Homo sapiens, UniProt Q16881); conditions: read-out: IC50 Human TrxR, DTNB/Trx; cited from earlier work
Human TrxR [3] = target: T2, Human TrxR; assay: Inhibition of human TrxR (DTNB/Trx); assay type: biochemical; conditions: read-out: IC50 Human TrxR, preincubation 5 min at 25 °C, tested form: HCl
Procedure: as §1

Human GR [4] = target: T1, Human GR; conditions: read-out: IC50 Human GR, GSSG; tested form: HCl; cited from earlier work

Structure (SMILES) | IC50 (Human GR [1]) [µM] | IC50 (Human TrxR [2]) [µM] | IC50 (Human TrxR [3]; 21 μM Trx) [µM] | IC50 (Human TrxR [3]; 3 mM DTNB) [µM] | IC50 (Human GR [4]) [µM]
CC1=C(CBr)C(=O)c2c(O)ccc(O)c2C1=O | 4.5 | 0.08 |  |  | 
CN(C)CCC(=O)/C=C/c1ccccc1Cl |  |  | 1.1 | 18.4 | > 1000
